One data set has as its target T1, human GLP-1 receptor (Homo sapiens, UniProt P43220).
T1 construct: expressed in transfected cells; host or cells: BHK cells, clone FCW467-12A/KZ10-1 (parent line BHKTS13), further transfected with CRE luciferase
Nature of the data set: In vitro potency (AlphaScreen cAMP, membranes). The class given is biochemical. Particulars: cAMP formation in membranes from BHK467-12A cells expressing human GLP-1 receptor. The method, then: The purpose of this example is to test the activity, or potency, of the GLP-1 derivatives in vitro.
Purified plasma membranes from a stable transfected cell line, BHK467-12A (tk-ts13), expressing the human GLP-1 receptor were stimulated with the GLP-1 analogue or derivative in question, and the potency of cAMP production was measured using the AlphaScreen™ cAMP Assay Kit from Perkin Elmer Life Sciences. The basic principle of the AlphaScreen Assay is a competition between endogenous cAMP and exogenously added biotin-cAMP. The capture of cAMP is achieved by using a specific antibody conjugated to acceptor beads.
A stable transfected cell line and a high expressing clone were selected for screening. The cells were grown at 5% CO2 in DMEM, 5% FCS, 1% Pen/Strep (Penicillin/Streptomycin) and 0.5 mg/ml of the selection marker G418.
Cells at approximately 80% confluence were washed 2× with PBS and harvested with Versene (aqueous solution of the tetrasodium salt of ethylenediaminetetraacetic acid), centrifuged 5 min at 1000 rpm and the supernatant removed. The additional steps were all performed on ice. […] The protein concentration was determined and the membranes stored at −80° C. until use. […]

Chains of the proteins cited; added tags and fusions are not shown. Residues count along the entry.
UniProt P43220, 24-463: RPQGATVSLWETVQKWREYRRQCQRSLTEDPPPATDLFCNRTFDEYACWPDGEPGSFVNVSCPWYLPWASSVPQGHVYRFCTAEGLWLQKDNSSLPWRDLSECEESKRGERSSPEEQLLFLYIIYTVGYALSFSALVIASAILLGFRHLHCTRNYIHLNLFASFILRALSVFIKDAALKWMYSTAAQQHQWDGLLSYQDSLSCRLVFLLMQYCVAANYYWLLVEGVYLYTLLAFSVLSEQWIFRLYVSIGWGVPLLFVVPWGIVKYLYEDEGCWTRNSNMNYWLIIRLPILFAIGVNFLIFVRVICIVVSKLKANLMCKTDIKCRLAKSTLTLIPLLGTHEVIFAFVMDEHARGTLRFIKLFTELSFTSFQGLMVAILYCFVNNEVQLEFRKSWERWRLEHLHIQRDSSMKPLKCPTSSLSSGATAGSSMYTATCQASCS

Data set [1] relates to Landrace Yorkshire Duroc (LYD) pigs. As to the kind of experiment: Pharmacodynamic (PD) study in pigs, food intake. The class given is in vivo, pig. As to conditions: single s.c. dose 3.0 nmol/kg. The method, then:
The purpose of this experiment was to investigate the effect of a couple of Example compounds on food intake in pigs. This was done in a pharmacodynamic (PD) study as described below, in which food intake was measured from 1 to 4 days after administration of a single dose of the GLP-1 derivative, as compared to a vehicle-treated control group.
Female Landrace Yorkshire Duroc (LYD) pigs, approximately 3 months of age, weighing approximately 30-35 kg were used (n=3-4 per group). The animals were housed in a group for approximately 1 week during acclimatisation to the animal facilities. During the experimental period the animals were placed in individual pens at least 2 days before dosing and during the entire experiment for measurement of individual food intake. The animals were fed ad libitum with pig fodder (Svinefoder Danish Top) at all times both during the acclimatisation and the experimental period. Food intake was monitored on line by logging the weight of fodder every 15 minutes. The system used was Mpigwin (Ellegaard Systems, Faaborg, Denmark).
The phosphate buffer serves as vehicle. Animals are dosed with a single subcutaneous dose of the GLP-1 derivative or vehicle (dose volume 0.025 ml/kg) on the morning of day 1, and food intake is measured for 1 day after dosing. On the last day of each study, 1-4 days after dosing, a blood sample for measurement of plasma exposure of the GLP-1 derivative is taken from the heart in anaesthetised animals. The animals are thereafter euthanised with an intra-cardial overdose of pentobarbitone.
Food intake is calculated as mean±SEM food intake in 24 h intervals (0-24 h, 24-48 h, and 48-72 h). In Table 6 below the food intake is indicated as percentage of the food intake of the vehicle group in the same time interval (dosage 3.0 nmol/kg).
Statistical comparisons of the food intake in the 24 h intervals in the vehicle vs. GLP-1 derivative group are done using two-way-ANOVA repeated measures, followed by Bonferroni post-test.

A short description of data set [2]: in vivo. Particulars: male, Göttingen, minipig, iv.
A short description of data set [3]: in vivo. Particulars: male, Sprague Dawley, rat, iv.

`CC[C@H](C)[C@H](NC(=O)[C@H](Cc1ccccc1)NC(=O)[C@H](CCC(=O)O)NC(=O)[C@H](CCCCNC(=O)[C@@H](N)CCCCNC(=O)[C@@H](N)CCCCNC(=O)CC[C@H](NC(=O)CCCCCCCCCCCCCCC(=O)O)C(=O)O)NC(=O)[C@H](C)NC(=O)[C@H](C)NC(=O)[C@H](CCC(N)=O)NC(=O)CNC(=O)[C@H](CCC(=O)O)NC(=O)[C@H](CC(C)C)NC(=O)[C@H](Cc1ccc(O)cc1)NC(=O)[C@H](CO)NC(=O)[C@H](CO)NC(=O)[C@@H](NC(=O)[C@H](CC(=O)O)NC(=O)[C@H](CO)NC(=O)[C@@H](NC(=O)[C@H](Cc1ccccc1)NC(=O)[C@@H](NC(=O)CNC(=O)[C@H](CCC(=O)O)NC(=O)C(C)(C)NC(=O)[C@@H](N)Cc1c[nH]cn1)[C@@H](C)O)[C@@H](C)O)C(C)C)C(=O)N[C@@H](C)C(=O)N[C@@H](Cc1c[nH]c2ccccc12)C(=O)N[C@@H](CC(C)C)C(=O)N[C@H](C(=O)N[C@@H](CCCNC(=N)N)C(=O)NCC(=O)N[C@@H](CCCNC(=N)N)C(=O)N[C@@H](CCCCNC(=O)[C@@H](N)CCCCNC(=O)[C@@H](N)CCCCNC(=O)CC[C@H](NC(=O)CCCCCCCCCCCCCCC(=O)O)C(=O)O)C(=O)O)C(C)C` [Example 6, N^ε26-[(2S)-2-amino-6-[[(2S)-2-amino-6-[[(4S)-4-carboxy-4-(15-carboxypentadecanoylamino)butanoyl]amino]hexanoyl]amino]hexanoyl], N^ε37-[(2S)-2-amino-6-[[(2S)-2-amino-6-[[(4S)-4-carboxy-4-(15-carboxypentadecanoylamino)butanoyl]amino]hexanoyl]amino]hexanoyl]-[Aib^8,Arg^34,Lys^37]-GLP-1-(7-37)-peptide]: the response on human GLP-1 receptor was half-maximal at 0.634 nM (EC50). For the same compound, the “PD in pig, food intake (% of vehicle) for hours 0-24” value in data set [1] (0-24 h) is listed as 84 % of vehicle. For the same compound, the “PD in pig, food intake (% of vehicle) for hours 24-48” value in data set [1] (24-48 h) was 85 % of vehicle. The “PD in pig, food intake (% of vehicle) for hours 48-72” value in data set [1] (48-72 h) was 73 % of vehicle. Moreover, the half-life in the data set “in vivo [2]” is 98 h; in the data set “in vivo [3]” it was 25 h.

(Values after patent US10604554B2, “Double-acylated GLP-1 derivatives” (Novo Nordisk A/S, priority 2012, dated 2020).)
